Test results taken from ChEMBL document CHEMBL2163209, “Selective dual inhibitors of CYP19 and CYP11B2: targeting cardiovascular diseases hiding in the shadow of breast cancer” (J Med Chem, 2012).

Tests used:
[1] = molecular target: T1, Cytochrome P450 11B2, mitochondrial (Homo sapiens, UniProt P19099); experiment: Inhibition of human CYP11B2 expressed in V79MZh cells using [14C]-11-deoxycorticosterone as substrate by HPTLC/phosphoimaging method; type: cell-based
T1 sequence (P19099 whole entry): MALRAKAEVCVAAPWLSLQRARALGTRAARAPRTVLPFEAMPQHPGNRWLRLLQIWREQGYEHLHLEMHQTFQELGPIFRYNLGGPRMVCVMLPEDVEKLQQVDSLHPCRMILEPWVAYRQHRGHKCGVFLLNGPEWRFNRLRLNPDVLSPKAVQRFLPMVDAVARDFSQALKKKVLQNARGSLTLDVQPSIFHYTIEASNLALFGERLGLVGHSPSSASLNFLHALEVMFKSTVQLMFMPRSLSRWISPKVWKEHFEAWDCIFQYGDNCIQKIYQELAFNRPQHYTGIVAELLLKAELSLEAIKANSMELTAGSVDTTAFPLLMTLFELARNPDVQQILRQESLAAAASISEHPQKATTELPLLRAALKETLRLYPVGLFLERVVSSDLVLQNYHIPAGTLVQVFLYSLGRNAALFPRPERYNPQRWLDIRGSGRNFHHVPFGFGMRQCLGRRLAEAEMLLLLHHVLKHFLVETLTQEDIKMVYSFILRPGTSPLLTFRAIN

V79MZh = experiment: Selectivity factor, ratio of IC50 for human CYP11B1 to IC50 for human CYP11B2 expressed in V79MZh cells; type: cell-based

Which IC50 [1] does the source give for `CCOc1cc2c(cc1-c1cccnc1)CCC(=O)N2` here?
The IC50 was 674 nM.

What about the Ratio IC50 (V79MZh) of the same compound?
The Ratio IC50 was 5.5.
